Results from ChEMBL document CHEMBL6103628, “Structural Optimization of Covalent Inhibitors for Deubiquitinase ChlaDUB1 of Chlamydia trachomatis as Antibiotic Agents” (J Med Chem, 2025).

Experiments:
[1] = biological target: T1, Deubiquitinase and deneddylase Dub1 (Chlamydia trachomatis serovar L2 (strain ATCC VR-902B / DSM 19102 /434/Bu)) (UniProt B0B9A0); test: Binding affinity to recombinant Chlamydia trachomatis DUB1 (130 to 401 residues) assessed as inactivation rate constant (Kinact) using Ub-Rh110Gly as fluorogenic substrate incubated for 360 mins by Michaelis-Menten analysis
T1 sequence (whole entry): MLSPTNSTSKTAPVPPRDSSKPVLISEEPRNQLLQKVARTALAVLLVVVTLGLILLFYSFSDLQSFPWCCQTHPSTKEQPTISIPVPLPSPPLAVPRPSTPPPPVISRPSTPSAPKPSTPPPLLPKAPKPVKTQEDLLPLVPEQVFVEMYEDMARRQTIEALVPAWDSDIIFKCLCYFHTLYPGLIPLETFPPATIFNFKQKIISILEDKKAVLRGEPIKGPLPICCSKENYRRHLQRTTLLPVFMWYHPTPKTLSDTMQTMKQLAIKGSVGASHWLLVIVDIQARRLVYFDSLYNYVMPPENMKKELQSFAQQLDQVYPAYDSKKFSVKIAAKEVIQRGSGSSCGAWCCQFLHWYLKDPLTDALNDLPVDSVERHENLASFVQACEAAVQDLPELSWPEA

[2] = biological target: T1, Deubiquitinase and deneddylase Dub1 (Chlamydia trachomatis serovar L2 (strain ATCC VR-902B / DSM 19102 /434/Bu)); test: Binding affinity to recombinant Chlamydia trachomatis DUB1 (130 to 401 residues) assessed as Kinact/Ki ratio using Ub-Rh110Gly as fluorogenic substrate incubated for 360 mins by Michaelis-Menten analysis

**Q.** How did the Kinact [1] turn out when `N#Cc1nc(C(=O)NCc2c[nH]c3ccccc23)co1` was run?
**A.** 2.79 min⁻¹

**Q.** And the Ratio [2]?
**A.** 396 M⁻¹ s⁻¹
